Legend:
Assay type in all cases: cell-based
[1] = molecular target: T1, Peroxisome proliferator-activated receptor alpha (Homo sapiens) (UniProt Q07869); experiment: Potency index, ratio of Wy-14,643 concentration to compound concentration required for agonist activity at PPARalpha in human HepG2 cells assessed as increase in CAC mRNA level
T1 sequence (whole entry): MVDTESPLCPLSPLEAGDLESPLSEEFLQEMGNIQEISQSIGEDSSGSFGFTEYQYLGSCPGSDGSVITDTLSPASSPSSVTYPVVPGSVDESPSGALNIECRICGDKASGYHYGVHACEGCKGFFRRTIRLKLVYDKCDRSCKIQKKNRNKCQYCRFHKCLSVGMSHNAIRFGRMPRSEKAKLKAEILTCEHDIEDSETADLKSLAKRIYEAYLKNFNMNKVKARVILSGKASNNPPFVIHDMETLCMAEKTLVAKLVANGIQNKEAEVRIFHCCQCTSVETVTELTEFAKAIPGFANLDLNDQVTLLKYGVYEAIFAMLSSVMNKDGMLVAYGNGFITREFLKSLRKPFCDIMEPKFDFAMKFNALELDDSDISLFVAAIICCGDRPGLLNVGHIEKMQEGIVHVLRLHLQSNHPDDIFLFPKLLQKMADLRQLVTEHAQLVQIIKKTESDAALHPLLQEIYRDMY

[2] = molecular target: T1, Peroxisome proliferator-activated receptor alpha (Homo sapiens); experiment: Potency index, ratio of Wy-14,643 concentration to compound concentration required for PPARalpha transcription positive regulatory loop mediated PPARalpha protein expression level in human HepG2 cells
[3] = molecular target: T1, Peroxisome proliferator-activated receptor alpha (Homo sapiens); experiment: Potency index, ratio of Wy-14,643 concentration to compound concentration required for agonist activity at PPARalpha in human HepG2 cells assessed as increase in CPT1 mRNA level
[4] = molecular target: T1, Peroxisome proliferator-activated receptor alpha (Homo sapiens); experiment: Potency index, ratio of Wy-14,643 concentration to compound concentration required for PPARalpha transcription positive regulatory loop mediated upregulation of PPARalpha mRNA level in human HepG2 cells
[5] = molecular target: T1, Peroxisome proliferator-activated receptor alpha (Homo sapiens); experiment: Potency index, ratio of Wy-14,643 concentration to compound concentration required for agonist activity at PPARalpha in human HepG2 cells assessed as increase in CAC protein expression level
[6] = molecular target: T1, Peroxisome proliferator-activated receptor alpha (Homo sapiens); experiment: Potency index, ratio of Wy-14,643 concentration to compound concentration required for agonist activity at PPARalpha in human HepG2 cells assessed as increase in mitochondrial mass
[7] = molecular target: T1, Peroxisome proliferator-activated receptor alpha (Homo sapiens); experiment: Potency index, ratio of Wy-14,643 concentration to compound concentration required for agonist activity at PPARalpha in human HepG2 cells assessed as increase in CPT1 protein expression level

Measured: Ratio

Cc1oc(-c2ccccc2)nc1COc1ccc(Cc2ccc(OC(C)C(=O)O)cc2)cc1 (configuration not stated)
50: all assays above
